Here are results for 2 molecules from US5707798A, “Identification of ligands by selective amplification of cells transfected with receptors” (priority 1994, dated 1998).

Protein sequences, listed by entry. Tags and fused reporters are not part of them. Residues count along the entry.
UniProt P21450, 21-427: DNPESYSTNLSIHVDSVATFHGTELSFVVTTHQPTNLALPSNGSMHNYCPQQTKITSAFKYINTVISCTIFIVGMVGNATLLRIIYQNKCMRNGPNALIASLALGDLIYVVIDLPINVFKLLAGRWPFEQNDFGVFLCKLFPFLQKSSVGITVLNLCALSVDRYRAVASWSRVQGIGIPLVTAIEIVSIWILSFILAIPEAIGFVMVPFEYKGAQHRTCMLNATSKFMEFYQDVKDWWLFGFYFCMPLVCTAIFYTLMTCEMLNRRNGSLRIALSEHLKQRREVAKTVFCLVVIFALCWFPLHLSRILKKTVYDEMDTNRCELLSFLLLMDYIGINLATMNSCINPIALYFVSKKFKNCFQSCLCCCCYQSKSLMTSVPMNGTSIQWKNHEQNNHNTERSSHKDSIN

In test [1] the test system is certain muscarinic receptors. The note with it: cited from earlier work.
For another test, the target named is T1, Endothelin ETA receptor (Bos taurus, UniProt P21450).
T1 construct: expressed in transfected cells; host or cells: NIH 3T3 (mouse fibroblasts)
It is filed as cell-based. The note with it: Table 2, read-out: Ligand EC50.

The target in a further test is T2, Endothelin ETB receptor (Rattus norvegicus, UniProt P21451).
T2 construct: expressed in transfected cells; host or cells: NIH 3T3 (mouse fibroblasts)
T2 sequence (P21451 27-442): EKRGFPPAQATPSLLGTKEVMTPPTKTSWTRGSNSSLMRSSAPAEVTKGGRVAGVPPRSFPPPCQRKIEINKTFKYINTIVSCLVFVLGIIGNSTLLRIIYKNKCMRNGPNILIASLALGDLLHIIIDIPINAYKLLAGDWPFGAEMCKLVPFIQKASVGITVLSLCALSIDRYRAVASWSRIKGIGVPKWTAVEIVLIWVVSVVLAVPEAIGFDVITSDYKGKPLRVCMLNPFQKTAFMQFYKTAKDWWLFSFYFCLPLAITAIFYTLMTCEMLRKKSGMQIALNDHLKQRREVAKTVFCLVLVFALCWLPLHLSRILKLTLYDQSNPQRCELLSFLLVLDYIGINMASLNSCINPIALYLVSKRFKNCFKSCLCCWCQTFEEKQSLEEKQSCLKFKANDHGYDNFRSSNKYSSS
It counts as cell-based. As to conditions: Table 2, read-out: Ligand EC50.

Consider `C[N+](C)(C)CCOC(N)=O` [carbachol], for which the growth stimulation result in test [1] is “stimulates”.

The EC50 is the concentration that produces a half-maximal response. Regarding ET-1: endothelin receptor ligand, the EC50 with Endothelin ETA receptor was found to be 0.079 ± 0.048 nM; with Endothelin ETB receptor it was 0.24 ± 0.2 nM.
